## Antibody variant affinities, Ab-14 light chain, assay B

Data: MIT Lincoln Laboratory AlphaSeq set, Li et al. 2023, doi:10.1038/s41467-023-39022-2, as distributed in FLAb.

Binding partner: SARS-CoV-2 spike HR2 peptide, sequence PDVDLGDISGINAS.

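Phage display of a naive human antibody library on the peptide gave the parent. The variants were designed computationally from a first round of random CDR variants and then made and measured. Their group label is 14L_En_Gibbs (En: ensemble of fine-tuned language models; Gibbs: Gibbs sampling). AlphaSeq pools MATa yeast showing the antibodies with MATalpha yeast showing the peptide. Pairs that bind mate more often; barcode pairs of the diploids are counted by sequencing. A regression on co-assayed BCL2-family reference pairs converts the normalised counts of each replicate to an apparent Kd. There are six technical replicates.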

Parent scFv Ab-14: VH joined to VL by the linker GGGGSGGGGSGGGGS. Changes lie in the light chain CDRs alone.
VH: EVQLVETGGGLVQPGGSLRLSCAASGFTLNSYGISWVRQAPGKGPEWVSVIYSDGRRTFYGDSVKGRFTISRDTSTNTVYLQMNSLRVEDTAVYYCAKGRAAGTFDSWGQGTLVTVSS
VL: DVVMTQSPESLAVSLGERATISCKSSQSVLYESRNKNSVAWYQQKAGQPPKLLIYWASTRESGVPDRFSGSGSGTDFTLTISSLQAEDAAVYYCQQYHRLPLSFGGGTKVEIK

Each variant is given by its three light chain CDRs, as the data file delimits them; those of the parent are KSSQSVLYESRNKNSVA, WASTRES, QQYHRLPLS. Affinities are written as log10 Kd with Kd in nM; a lower number is a better binder. An entry "nd" has no value in the source: the pair was not observed among the diploids in that replicate. This suggests poor binding but is not conclusive. Three control strains display no target. For all light chain designs, 4% of the pairings with them gave a signal, with a median of 2.64 and one signal in twenty below 1.59, so weak values seen in few replicates may be background. For each scFv, signals with the empty controls are counted beside the result, with their mean in brackets. Values of this round are not directly comparable with the first-round values of the same sequences. The parent sequence was in this pool as ten entries: three were never detected, three once, and four in most replicates, with averages from 0.34 to 2.37. The authors averaged sequences with at least three values out of six and counted those with two or fewer as poor binders.

CDR-L1 | CDR-L2 | CDR-L3 | log10 Kd, replicates | control signals
KLQWYNTEASYSARNIA | DGAQRLN | QQYMRLPLM | -0.04 / -0.09 / -0.21 / -0.16 / -0.50 / 0.19 | 0 of 18
ALTNEFESVSHHKNNIA | HTSQRCM | QQYATLPLS | 1.28 / 1.40 / 1.65 / 1.70 / 1.44 / 1.50 | 0 of 18
KLSSHEQHGTARNSAMA | NAQVSTQ | QQYSHLPLS | 1.08 / 1.32 / 1.31 / 0.89 / 0.84 / 1.44 | 1 of 18 (2.78)
ILEENADVITEIGNSIA | ETNMVRS | QQYHRLPLA | 2.07 / 1.04 / 2.05 / nd / 2.76 / 2.47 | 0 of 18
KLMMFMQEIGCMKNNIA | NLEMGAR | QQYAQLPLV | nd / nd / nd / nd / nd / nd | 0 of 18
AIVEDNAGDQKNSSNIA | SVDQRED | QQYQRLPLM | 0.95 / 1.00 / 0.84 / 0.86 / 0.55 / 1.06 | 5 of 18 (2.71)
RLFNKMGQLQNIAQNVA | NATTVIN | QSYMRLPLT | 1.04 / 0.84 / 0.83 / 0.91 / 0.43 / 0.95 | 1 of 18 (2.87)
SLMDNPWVEDHYRKAIA | DINVKAD | QQYHRLPLS | 0.78 / 0.58 / 0.21 / 0.37 / 0.54 / 0.53 | 0 of 18
AIRQMTEEAAQNSNSIA | EEDRVTE | QQYSKLPLT | 1.89 / 1.10 / 1.54 / 1.06 / 1.09 / 1.41 | 0 of 18
RIDDYEAMLGKNKESIA | EAAVTLT | QQYARLPLS | 0.88 / 0.96 / 1.23 / 1.02 / 0.71 / 1.08 | 1 of 18 (2.51)
GMSDSMTETIADANHIA | DGEARDV | QQYARLPLI | 1.08 / 2.33 / 1.06 / 0.99 / 0.93 / 1.14 | 1 of 18 (2.42)
KLNQDPVLKTNINNNVA | EHSEVFQ | QQYAHLPLQ | 1.47 / 1.75 / 1.70 / 1.84 / 2.16 / 1.95 | 3 of 18 (2.49)
HVHSLMAIWQEIQNNVA | DAQNRNA | QQYFRLPLA | -0.32 / 0.07 / -0.34 / -0.25 / -0.29 / 0.13 | 1 of 18 (2.86)
NLMSGMSELSVWKYSIA | SASIRGS | QQYFRLPLL | 0.24 / 0.20 / 0.69 / 0.64 / 0.96 / 1.10 | 0 of 18
MIAMEIGIEDSKWSAVA | SNSVRMS | QQYGRLPFS | nd / nd / nd / nd / nd / nd | 0 of 18
QVTNISMPYGRNRNNIA | NTSERMH | QQYQMLPLA | -0.07 / 0.24 / -0.10 / -0.32 / -0.06 / 0.06 | 2 of 18 (3.05)
QLRDEQWAEGMNIQSIA | EGEVSKD | QQYNRLPLS | 1.32 / 2.19 / 1.50 / 2.17 / 1.82 / 2.20 | 0 of 18
VIDAFNFSNGQKWNNVA | QTSVRLQ | QYYQRLPLM | 0.80 / 1.02 / 1.05 / 0.74 / 0.96 / 0.97 | 5 of 18 (2.73)
RLTEHTSERAYADASVA | DASTRND | QQYHRLPLE | 0.83 / 0.94 / 1.00 / 0.73 / 0.66 / 0.84 | 0 of 18
KLMGQGDHSIEHANSIA | NVDIVDM | QQYAHLPLS | 1.32 / 1.28 / 0.83 / 0.51 / 1.03 / 1.03 | 1 of 18 (2.16)
VMQIQSDGMLNAKHNVA | GVDTRLE | QHYFRLPLL | 0.25 / 1.06 / -0.08 / 0.12 / 0.04 / 0.50 | 2 of 18 (1.81)
SIQFFIENDAEWGDSIA | DVSATTA | QQYHRLPLA | 1.10 / 0.61 / 0.37 / 0.56 / 1.11 / 0.98 | 1 of 18 (3.43)
SLAFTQHFGQSGGSNVA | EVQMREQ | QQYFRLPLG | 0.78 / 0.52 / 0.38 / 0.39 / 0.48 / 0.58 | 0 of 18
NISIKEPGNWKMMDSVA | HSSLRAE | QQYWRLPLM | 0.32 / 1.17 / 0.67 / 1.24 / 0.59 / 1.51 | 0 of 18
QFSNVNMQGNAQWANVA | EATYAEE | QQYARLPLQ | 0.95 / 0.51 / 1.04 / 0.57 / 0.50 / 0.79 | 1 of 18 (2.14)
HMMMYSEMQNIIQNNIA | DAMTRVT | QQYQHLPLS | 0.30 / 0.09 / 0.19 / -0.03 / -0.11 / 0.10 | 4 of 18 (2.53)
SLENLTNEQNAYGSNIA | NADVLVY | QQYYRLPIV | 1.23 / 0.84 / 1.15 / 0.36 / 1.34 / 1.48 | 0 of 18
SIRQVTCDNQRNHSNIA | DATQIEP | QQYSMLPLS | 1.13 / 1.09 / 1.54 / 1.14 / 1.54 / 1.34 | 1 of 18 (1.15)
HMRHEFYGYDNYDKAVA | HANQRLN | QQYSRLPFS | 0.81 / 1.25 / 1.09 / 0.92 / 0.86 / 1.02 | 2 of 18 (3.61)
NLGGEDANDNRGMMAVA | DVSTVGE | QHYNRLPLS | 1.37 / 1.61 / 1.10 / 1.91 / 1.66 / 1.78 | 0 of 18
NFSGSDQYQMQEQGNIA | QTEQKAN | QQYFRLPLT | 0.53 / 0.52 / 0.19 / 0.18 / 0.05 / 0.22 | 1 of 18 (3.52)
HMHTLMYTENIGENSIA | DANLHVD | QQYFRLPIS | 1.65 / 1.26 / 1.14 / 1.25 / 0.74 / 0.94 | 0 of 18
SVQVYTENFMERGQNIA | DASAKTV | QQYHRLPLA | 0.71 / 0.38 / 0.67 / 0.58 / 0.79 / 0.72 | 1 of 18 (3.19)
KFLSLSLHQTGNLNSVA | DAEERQE | QQYMRLPLM | 0.28 / 0.20 / 0.21 / -0.03 / 0.28 / 0.82 | 0 of 18
KIQWYPLEFRGTISAVA | EAATRYN | QQYMRLPLM | 0.35 / 1.84 / 0.63 / 1.24 / 0.89 / 2.13 | 0 of 18
KIFGSIPEFEMDDNAIA | MATLRET | QQYQRLPLS | nd / nd / nd / nd / nd / nd | 0 of 18
FFSLIQGSYGEANNSIA | ERNERAM | QQYGRLPLV | 2.38 / 2.15 / 2.00 / nd / 1.89 / nd | 1 of 18 (2.46)
RVTIISDPYGRNRNNIA | QTSERAH | QQYQMLPLA | -0.29 / -0.50 / -0.71 / -0.78 / -0.52 / -0.50 | 3 of 18 (2.57)
KWQKDSLFMGQYMNNIA | NTSLRTM | QQYYRLPLT | 0.14 / 0.11 / -0.05 / 0.00 / -0.01 / 0.12 | 0 of 18
HVAGMMLQMGTQHQNIA | DMAIKCD | QQYQRLPLH | 0.86 / 0.98 / 0.93 / 0.90 / 0.61 / 0.41 | 0 of 18
KLQTLTYTANIGESSVA | DVNTHVD | QQYFRLPLS | 0.29 / 0.02 / 0.15 / -0.22 / -0.01 / 0.05 | 1 of 18 (2.32)
KITDKFLGEGNGRQNIA | HAMVAYE | QQYQQLPLA | 0.50 / 0.65 / 0.40 / 0.64 / 0.65 / 0.87 | 1 of 18 (2.49)
HVSLQLRPGREIQNPIA | EGSHRAA | QQYDRLPLG | 0.60 / 0.59 / 0.43 / 0.50 / 0.63 / 0.47 | 2 of 18 (2.82)
QIMEEQSMRTEGNWNIA | QAEQKVH | QQYNRLPLA | 0.36 / 0.88 / 0.68 / 0.05 / 0.84 / 0.95 | 0 of 18
VIDAFNFSDGQKWNNVA | QTSVRLQ | QYYQRLPLM | 1.26 / 0.92 / 1.39 / 1.12 / 0.65 / 1.23 | 0 of 18

6 of these entries, quoted again:

CDR-L1	CDR-L2	CDR-L3	log10 Kd, replicates	control signals
VIDAFNFSDGQKWNNVA	QTSVRLQ	QYYQRLPLM	1.26 / 0.92 / 1.39 / 1.12 / 0.65 / 1.23	0 of 18
RIDDYEAMLGKNKESIA	EAAVTLT	QQYARLPLS	0.88 / 0.96 / 1.23 / 1.02 / 0.71 / 1.08	1 of 18 (2.51)
HVHSLMAIWQEIQNNVA	DAQNRNA	QQYFRLPLA	-0.32 / 0.07 / -0.34 / -0.25 / -0.29 / 0.13	1 of 18 (2.86)
KLMMFMQEIGCMKNNIA	NLEMGAR	QQYAQLPLV	nd / nd / nd / nd / nd / nd	0 of 18
RLFNKMGQLQNIAQNVA	NATTVIN	QSYMRLPLT	1.04 / 0.84 / 0.83 / 0.91 / 0.43 / 0.95	1 of 18 (2.87)
ALTNEFESVSHHKNNIA	HTSQRCM	QQYATLPLS	1.28 / 1.40 / 1.65 / 1.70 / 1.44 / 1.50	0 of 18